RAD54 branch: RAD54 (human) branch migration inhibition | Q92698 | RAD54 Holliday junction branch migration, FAM/BHQ fluorescence | inhibition, % at 10.4 µM | 360,000 compounds, 0.14% hits;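 active = mean normalized replicate activity at least 40 and at least half of replicates scoring 40 or more; inconclusive = only one of the two criteria met; inactive = mean below 40 and under half of replicates reaching 40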;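 note: 0% = median of neutral control wells and 100% = median of positive control wells; inhibitors cause a drop in the FAM fluorescence signal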
Xi reactivation: X-chromosome reactivation activator; 360,000 compounds, 0.055% hits; XiGFP mouse fibroblasts, % GFP-positive cells imaging, 3 d; cells co-treated with 5-aza-dC sensitizer; scaled so ellipticine positive control = 100%; activation, % at 7.58 µM;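 active = mean normalized replicate activation at least 10% and every replicate at or above 10%; inconclusive = only one of the two criteria met; inactive = mean below 10% and not all replicates reach 10%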;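 note: 0% = median of on-plate neutral control wells and 100% = ellipticine 6 µM median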
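Material: XiGFP fibroblasts, SV40-immortalized. Buffer or medium: DMEM plus 5-aza-dC sensitizer. Compound: single concentration per compound, delivered by pin transfer. Times: 3 days compound exposure. Controls: ellipticine 6 µM.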
Yeast UUG start: modulators of yeast start codon fidelity, primary screen, whole organism, S. cerevisiae, single point, plate reader; S. cerevisiae UUG-firefly luciferase reporter, luminescence/redox ratio; activity score, % at 18.7 µM; actives 0.13% (n = 350,000); AID 602363, 2012;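 active = replicate mean at a twofold rise or more, about +100% in these data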;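 also: firefly luciferase made from a UUG start codon reports start codon fidelity; reporter light over untreated wells divided by growth signal over untreated wells; some hits fall short of that in this replicate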
RAD52 inh: blocks human RAD52 DNA annealing; recombinant RAD52 DNA annealing, FRET fluorescence; inhibition, % at 18.7 µM; 360,000 compounds, 0.46% hits;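 active = every replicate showing at least 50% inhibition; inconclusive = mean inhibition at least 50% but not in every replicate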
E-selectin induc: E-selectin induction on HUVECs; HUVEC E-selectin immunofluorescence imaging; normalized: neutral wells 0, TNF-alpha wells 100; 260,000 compounds, 0.37% hits; activation, % at 7.58 µM; P16581; AID 686992;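 active = mean E-selectin-positive cell signal at least 10% of the positive control, reached in at least 60% of replicates, without over 20% cell loss; inconclusive = no rule given, readout overlaps actives, possibly toxicity-flagged; inactive = the rest, including those meeting only one limit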
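System: HUVEC / Compound: single concentration / Signal: immunofluorescence imaging / Read-out: percent E-selectin-positive cells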
DNA binder FP: counter-screen for RAD52 inhibitors: DNA binding compounds | 1,000 compounds, 8% hits | Salmon sperm DNA/acridine orange FP displacement | AC50, µM | shares compounds with RAD52 inh;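 active = fitted half-maximal concentration for signal loss at or below twice the highest dose tested, in every separate run, actives reach about 64 µM in these data; inconclusive = runs disagree, or flat partial signal loss, or poor fit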
An asterisk follows results filed as active; i = inactive; ? = inconclusive; / = not tested or not shown. Rows were chosen to be rich in hits. Some 0.73% of all compounds tested hit in one or more screens of this group.

| item | smiles | RAD54 branch | Xi reactivation | Yeast UUG start | RAD52 inh | E-selectin induc | DNA binder FP |
| --- | --- | --- | --- | --- | --- | --- | --- |
| 1 | C[C@H](CO)N1C[C@H](C)[C@@H](CN(C)CC2CCCCC2)OCCCC[C@H](C)Oc2ccc(NC(=O)CCC(F)(F)F)cc2C1=O | 2 | 0 | 9 | / | 0 | / |
| 2 | O=C(N[C@H]1CC[C@@H](CCNS(=O)(=O)c2ccc(Cl)cc2)O[C@H]1CO)c1cnccn1 | 6 | 0 | -4 | -5 | 1 | / |
| 3 | CCCOc1cccc(C(=O)NC(=S)Nc2ccc(N3CCN(C)CC3)cc2)c1 | / | 0 | / | 66* | 7 | i |
| 4 | CC(Sc1nnc(NC(=O)c2cc3ccccc3oc2=O)s1)c1ccccc1 (stereo unspecified) | 7 | 0 | -12 | 53* | 0 | i |
| 5 | CCCc1nnc(NC(=O)c2cc3ccccc3oc2=O)s1 | 2 | / | -9 | / | / | / |
| 6 | CC1(C)Cc2c(c(-c3ccco3)nc3sc4c(NCCN5CCOCC5)ncnc4c23)CO1 | / | 0 | / | -7 | / | / |
| 7 | CCN(CC)CCNc1ncnc2c1sc1nc(N3CCCC3)c3c(c12)CC(C)(C)OC3 | / | 0 | / | 79* | 2 | i |
| 8 | CCN(CC)CCNc1ncnc2c1sc1nc(N3CCOCC3)c3c(c12)CCCC3 | / | 0 | / | 66* | 0 | 65µM* |
| 9 | OCCNc1ncnc2c1sc1nc(N3CCOCC3)c3c(c12)CCC3 | -12 | 0 | -8 | 34 | 0 | / |
| 10 | CN1CCN(C(=O)C[C@@H]2CC[C@H]3[C@@H](COC[C@@H](O)CN3Cc3cccc(F)c3)O2)CC1 | -10 | 0 | -5 | -9 | 0 | / |

Reformatted with two lines to a compound: 3 of the compounds above.
Values run as follows: RAD54 branch, Xi reactivation, Yeast UUG start, RAD52 inh, E-selectin induc, DNA binder FP
5: CCCc1nnc(NC(=O)c2cc3ccccc3oc2=O)s1
    2, /, -9, /, /, /
1: C[C@H](CO)N1C[C@H](C)[C@@H](CN(C)CC2CCCCC2)OCCCC[C@H](C)Oc2ccc(NC(=O)CCC(F)(F)F)cc2C1=O
    2, 0, 9, /, 0, /
10: CN1CCN(C(=O)C[C@@H]2CC[C@H]3[C@@H](COC[C@@H](O)CN3Cc3cccc(F)c3)O2)CC1
    -10, 0, -5, -9, 0, /

Three entries out of the list above, ordered by their value in RAD52 inh, lowest first:
no.	compound	Yeast UUG start	RAD52 inh
10	CN1CCN(C(=O)C[C@@H]2CC[C@H]3[C@@H](COC[C@@H](O)CN3Cc3cccc(F)c3)O2)CC1	-5	-9
2	O=C(N[C@H]1CC[C@@H](CCNS(=O)(=O)c2ccc(Cl)cc2)O[C@H]1CO)c1cnccn1	-4	-5
9	OCCNc1ncnc2c1sc1nc(N3CCOCC3)c3c(c12)CCC3	-8	34

(cont.)
| item | smiles | RAD54 branch | Xi reactivation | Yeast UUG start | RAD52 inh | E-selectin induc | DNA binder FP |
| --- | --- | --- | --- | --- | --- | --- | --- |
| 11 | CN(C)C(=O)c1cccc(-c2ccc([C@H]3[C@@H](CO)N(C(=O)C4CCCCC4)[C@H]3C#N)cc2)c1 | 8 | 0 | 11 | 5 | 0 | / |
| 12 | COc1nc(N=C(N)N)nc2ccc(C)cc12 | / | 0 | / | 79* | / | i |
| 13 | COc1nc(Nc2nc3ccccc3c(=O)[nH]2)nc2ccc(C)cc12 | -2 | -1 | -6 | -1 | / | / |
| 14 | COc1ccc(-c2[nH]ncc2CN2CCCCCCC2)c(OC)c1 | / | 0 | / | 76* | / | i |
| 15 | CCN(CC)CCCNC(=O)c1csc(Nc2cccc3ccccc23)n1 | 23 | 0 | -2 | 92* | 0 | i |
| 16 | CCN(CC)C(=O)c1csc(Nc2cccc3ccccc23)n1 | -12 | 0 | -21 | -5 | 1 | / |
| 17 | NCCCCNCCCN | 4 | 0 | -20 | 25 | 1 | / |
| 18 | NCCNCCNCCN | 21 | 0 | -14 | 94* | -2 | i |
| 19 | O=C(Nc1ccc(C(F)(F)F)cc1)N[C@H]1CC[C@@H](CCNC(=O)c2ccccc2F)O[C@H]1CO | -1 | 0 | 19 | -6 | 0 | / |
| 20 | Cc1cccc2nc(-c3ccccc3)c(-c3ccc(CN4CCC(n5cc(-c6ccccc6)[nH]c5=O)CC4)cc3)nc12 | / | 0 | / | 62* | 0 | i |
| 21 | c1ccc(-c2nc3ccccc3nc2-c2ccc(CN3CCC(c4nc5ccccc5[nH]4)CC3)cc2)cc1 | / | 0 | / | -13 | 1 | / |
| 22 | Cc1cccc2nc(-c3ccccc3)c(-c3ccc(CN4CCC(c5nc6ccccc6[nH]5)CC4)cc3)nc12 | / | 0 | / | 60* | 1 | i |
| 23 | CN(C)C(=O)[C@@H]1[C@@H](CO)[C@@H]2Cn3c(ccc(-c4ccccc4)c3=O)[C@@H]2N1C(=O)c1ccccn1 | -14 | 0 | / | 0 | 0 | / |
| 24 | CCCC(=O)Nc1ccc2c(c1)C(=O)N(C)[C@H]1CC[C@H](CC(=O)NCc3ccccc3Cl)O[C@@H]1CO2 | -3 | 0 | 16 | -10 | 0 | / |
| 25 | CCCNC(=O)Nc1ccc2c(c1)OC[C@H](C)N(CCC(F)(F)F)C[C@@H](C)[C@@H](OC)CN(C)C2=O | 4 | 0 | / | 0 | 0 | / |
| 26 | CO[C@H]1CN(C)C(=O)c2ccc(NS(=O)(=O)c3cccc(C)c3)cc2OC[C@H](C)NC[C@H]1C | / | 0 | / | / | 0 | / |
| 27 | CCN1CCN(CCCNC(=O)C2CCN(c3nnc(-n4c(C)ccc4C)s3)CC2)CC1 | -2 | 0 | -24 | 73* | 0 | i |
| 28 | CCN(c1ccccc1)S(=O)(=O)c1ccc(C(=O)N(CCCN(C)C)c2nc3cc4c(cc3s2)OCO4)cc1 | 20 | 0 | 8 | 66* | / | i |
| 29 | COc1ccc2nc(N(CCN(C)C)C(=O)c3ccc4ccccc4c3)sc2c1 | 9 | 0 | -3 | 54* | / | i |
| 30 | CN(C)CCN(C(=O)c1ccc2ccccc2c1)c1nc2cc3c(cc2s1)OCCO3 | 34 | 0 | 2 | 69* | / | i |
| 31 | C[C@H]1CN([C@@H](C)CO)C(=O)c2cc(C#Cc3cccc(F)c3)cnc2O[C@H]1CN(C)Cc1ccccn1 | 6 | / | -10 | 24 | / | / |
| 32 | CN(C)c1ccc(NC(=O)CN2CCC(NC(=O)C3CCCCC3)CC2)cc1 | / | 0 | / | 72* | 0 | i |
| 33 | O=C(CN1CCC(NC(=O)C2CCCCC2)CC1)Nc1ccccc1 | 12 | 0 | -20 | -7 | / | / |
| 34 | CCCCc1nc2sc3c(SCC(=O)NCc4ccco4)ncnc3c2c2c1CCC2 | -10 | / | -7 | / | / | / |
| 35 | CCCCc1nc2sc3c(SCCN(C)C)ncnc3c2c2c1CCC2 | / | 0 | / | 60* | / | i |
| 36 | C[C@@H]1CCCCO[C@@H](CN(C)C(=O)C2CCCCC2)[C@@H](C)CN([C@@H](C)CO)C(=O)c2cc(NC(=O)Cc3ccccc3)ccc2O1 | -2 | 0 | 35 | 1 | 0 | / |
| 37 | CCN(CC)CCC(=O)Nc1cccc2c1C(=O)c1ccccc1C2=O | 95* | 0 | -5 | 78* | 0 | 9µM* |
| 38 | Nc1cccc(C(=O)OCC(=O)Nc2cccc3c2C(=O)c2ccccc2C3=O)c1 | / | 0 | / | / | 0 | / |
| 39 | C[C@@H]1CN([C@@H](C)CO)C(=O)c2cccc(NC(=O)C3CCCCC3)c2O[C@H]1CN(C)CC1CCCCC1 | 0 | 0 | 3 | -19 | 0 | / |
| 40 | CC(C(=O)c1ccc(-c2ccccc2)cc1)[n+]1cccc(NC(=O)c2ccccc2)c1 (stereo unspecified) | ? | 0 | 8 | 58* | / | i |
| 41 | C[C@@H](NC(=O)C[C@H]1CC[C@@H](NC(=O)C2CCC2)[C@@H](CO)O1)c1ccccc1 | 0 | 0 | 26 | -2 | -1 | / |
| 42 | CCC(=O)c1ccc2c(c1)N(CCCN(C)C)c1ccccc1S2 | 28 | 0 | -1 | 70* | 1 | i |
| 43 | CN(C)CCNc1cccc2sc3ccc(O)cc3c(=O)c12 | / | 1 | / | -72 | / | / |
| 44 | Cc1ccc(NCCN(C)C)c2c(=O)c3cc(O)ccc3sc12 | / | 0 | / | 84* | 0 | 12µM* |
| 45 | CC(C)C#Cc1cnc2c(c1)C(=O)N([C@H](C)CO)C[C@H](C)[C@H](CN(C)C(=O)Cc1ccccn1)O2 | -8 | -1 | -10 | 10 | 0 | / |
| 46 | c1ccc(-c2cc(NCCN3CCCCC3)c3ccccc3n2)cc1 | 106* | 0 | -20 | 89* | 0 | i |
| 47 | CN(C)CCCNC(=O)c1ccc(-c2cc3nc(NCc4cccnc4)n(C)c(=O)c3s2)cc1 | 35 | 0 | -8 | 76* | 0 | i |
| 48 | CN(C)CCCNc1nc2cc(-c3cnn(C)c3)sc2c(=O)n1C | 35 | 0 | -24 | 59* | ? | i |
